Experimental data taken from patent publication US20260216354A1, “ANTI-CMET ANTIBODY, ANTIBODY-DRUG CONJUGATE, AND PREPARATION METHOD THEREFOR AND USE THEREOF” (MEDILINK THERAPEUTICS (SUZHOU) CO., LTD., priority 2022, published 2026).

Experiments:
LS1034 cells [1] = test: In-vitro killing activity Test 1 (CCK8), LS1034; format: cell-based, human; settings: 5 days, read-out: EC50 of ADC killing (nM) LS1034
[2] = system: human colorectal adenocarcinoma NCI-H716 cell lines; test: In-vivo efficacy in NCI-H716 CDX models; parameters: species or system mouse; settings: i.v., QW*3, NCI-H716 CDX
NCI-H69 cells = test: Flow cell affinity of ADCs, NCI-H69; format: binding, human; settings: flow cytometry
h.cMet-ECD-His = target: T1, h.cMet-ECD-His (Homo sapiens, UniProt P08581); test: ELISA protein affinity of cMET antibodies before and after conjugating into ADCs; format: binding
T1 construct: a human cMet ectodomain recombinant protein (Human HGF R/c-MET Protein, His Tag); purchased Acrobiosystems Co., Ltd. / ACRO Biosystems MET-H5227
T1 sequence (P08581 25-932 limits assumed): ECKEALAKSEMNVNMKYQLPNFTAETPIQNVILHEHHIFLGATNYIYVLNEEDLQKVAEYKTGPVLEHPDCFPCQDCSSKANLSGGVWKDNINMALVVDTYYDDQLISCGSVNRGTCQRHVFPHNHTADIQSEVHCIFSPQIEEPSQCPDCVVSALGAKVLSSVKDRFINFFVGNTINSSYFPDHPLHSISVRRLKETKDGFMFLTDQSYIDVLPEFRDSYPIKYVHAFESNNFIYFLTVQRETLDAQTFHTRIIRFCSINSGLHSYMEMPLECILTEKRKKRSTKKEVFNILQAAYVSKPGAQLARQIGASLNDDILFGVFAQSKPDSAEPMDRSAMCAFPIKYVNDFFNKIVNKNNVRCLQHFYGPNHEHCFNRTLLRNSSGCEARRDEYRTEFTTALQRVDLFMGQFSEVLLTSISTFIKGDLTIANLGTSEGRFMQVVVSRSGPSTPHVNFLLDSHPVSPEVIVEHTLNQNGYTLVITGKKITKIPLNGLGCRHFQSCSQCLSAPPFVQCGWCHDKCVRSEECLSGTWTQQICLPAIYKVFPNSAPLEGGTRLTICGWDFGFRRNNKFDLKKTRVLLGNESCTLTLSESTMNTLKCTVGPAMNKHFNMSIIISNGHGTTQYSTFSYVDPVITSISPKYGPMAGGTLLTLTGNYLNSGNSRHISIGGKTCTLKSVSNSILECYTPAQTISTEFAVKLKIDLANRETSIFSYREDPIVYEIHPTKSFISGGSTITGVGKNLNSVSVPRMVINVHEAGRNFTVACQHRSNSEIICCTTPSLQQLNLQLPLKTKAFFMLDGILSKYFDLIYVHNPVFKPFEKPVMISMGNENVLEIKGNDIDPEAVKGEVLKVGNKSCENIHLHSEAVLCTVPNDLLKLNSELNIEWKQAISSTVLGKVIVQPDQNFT

NCI-H358 cells [3] = test: In-vitro killing activity Test 1 (CCK8), NCI-H358; format: cell-based, human; settings: 5 days, read-out: EC50 of ADC killing (nM) NCI-H358
NCI-H716 cells = test: In-vitro killing activity Test 1 (CCK8), NCI-H716; format: cell-based, human; settings: 7 days, read-out: EC50 of ADC killing (nM) NCI-H716
[4] = system: human colon cancer SW480 cell lines; test: In-vivo efficacy in SW480 CDX models; parameters: species or system mouse; settings: 5 mg/kg, i.v., QW*2, SW480 CDX
LS1034 cells [5] = test: Flow cell affinity of ADCs, LS1034; format: binding, human; settings: flow cytometry
NCI-H358 cells [6] = test: Flow cell affinity of ADCs, NCI-H358; format: binding, human; settings: flow cytometry
SW480 cells = test: In-vitro killing activity Test 1 (CCK8), SW480; format: cell-based, human; settings: 7 days, read-out: EC50 of ADC killing (nM) SW480
[7] = system: human non-small cell lung cancer NCI-H358 cells; test: In-vivo efficacy in NCI-H358 CDX models (Test 1); parameters: species or system mouse; settings: i.v., QW*3, NCI-H358 CDX

B1: 55A10G6-HZ-B81 (DAR8) (conjugate)
heavy: QIQLVQSGAEVKKPGASVKVSCKASGYTFTDYYLNWVRQAPGQGLEWMGWIFPGSGNTKYSQKFQGRVTLTVDTSASTAYMELSSLRSEDTAVYYCAGGDYGGFTYWGQGTLVTVSSASTKGPSVFPLAPSSKSTSGGTAALGCLVKDYFPEPVTVSWNSGALTSGVHTFPAVLQSSGLYSLSSVVTVPSSSLGTQTYICNVNHKPSNTKVDKKV[human IgG1 Fc omitted here]
light: DIQMTQSPSSLSASVGDRVTITCGASENIYGALNWYQQKPGKAPKLLIYGATNLAAGVPSRFSGSGSGRDFTLTISSLQPEDFATYYCQNVLSEPLTFGQGTKVEIKRTVAAPSVFIFPPSDEQLKSGTASVVCLLNNFYPREAKVQWKVDNALQSGNSQESVTEQDSKDSTYSLSSTLTLSKADYEKHKVYACEVTHQGLSSPVTKSFNRGEC
LS1034 cells [1]
  EC50: 101 nM
[2]; 0.3 mg/kg
  TGI (%) on Day 14: 7.6%
[2]; 1 mg/kg
  TGI (%) on Day 14: 58.6%
NCI-H69 cells
  NCI-H69 Maximum signal value: 10484
h.cMet-ECD-His
  EC50: 3.923 ng/mL
NCI-H358 cells [3]
  EC50: 145 nM
NCI-H716 cells
  EC50: 4.66 nM
[4]
  TGI (%) on Day 15: 93.7%
LS1034 cells [5]
  LS1034 Maximum signal value: 9601
NCI-H358 cells [6]
  NCI-H358 Maximum signal value: 46313
SW480 cells
  EC50: 87.5 nM
[7]; 1 mg/kg
  TGI (%) on Day 14: 93.8%
[7]; 3 mg/kg
  TGI (%) on Day 14: 93.9%
